These are literature values, as cited in patent US20150148324A1, “FORMULATIONS FOR THE PREPARATION OF IMMEDIATE RELEASE TABLETS FOR ORAL ADMINISTRATION CONTAINING LOW-DOSE MIFEPRISTONE, TABLETS THUS OBTAINED AND THEIR PREPARATION PROCESS” (VALPHARMA INTERNATIONAL S.P.A., priority 2012, published 2015).

The series has as its target T1, progesterone receptor (Homo sapiens, UniProt P06401).
T1 sequence (P06401 1-933): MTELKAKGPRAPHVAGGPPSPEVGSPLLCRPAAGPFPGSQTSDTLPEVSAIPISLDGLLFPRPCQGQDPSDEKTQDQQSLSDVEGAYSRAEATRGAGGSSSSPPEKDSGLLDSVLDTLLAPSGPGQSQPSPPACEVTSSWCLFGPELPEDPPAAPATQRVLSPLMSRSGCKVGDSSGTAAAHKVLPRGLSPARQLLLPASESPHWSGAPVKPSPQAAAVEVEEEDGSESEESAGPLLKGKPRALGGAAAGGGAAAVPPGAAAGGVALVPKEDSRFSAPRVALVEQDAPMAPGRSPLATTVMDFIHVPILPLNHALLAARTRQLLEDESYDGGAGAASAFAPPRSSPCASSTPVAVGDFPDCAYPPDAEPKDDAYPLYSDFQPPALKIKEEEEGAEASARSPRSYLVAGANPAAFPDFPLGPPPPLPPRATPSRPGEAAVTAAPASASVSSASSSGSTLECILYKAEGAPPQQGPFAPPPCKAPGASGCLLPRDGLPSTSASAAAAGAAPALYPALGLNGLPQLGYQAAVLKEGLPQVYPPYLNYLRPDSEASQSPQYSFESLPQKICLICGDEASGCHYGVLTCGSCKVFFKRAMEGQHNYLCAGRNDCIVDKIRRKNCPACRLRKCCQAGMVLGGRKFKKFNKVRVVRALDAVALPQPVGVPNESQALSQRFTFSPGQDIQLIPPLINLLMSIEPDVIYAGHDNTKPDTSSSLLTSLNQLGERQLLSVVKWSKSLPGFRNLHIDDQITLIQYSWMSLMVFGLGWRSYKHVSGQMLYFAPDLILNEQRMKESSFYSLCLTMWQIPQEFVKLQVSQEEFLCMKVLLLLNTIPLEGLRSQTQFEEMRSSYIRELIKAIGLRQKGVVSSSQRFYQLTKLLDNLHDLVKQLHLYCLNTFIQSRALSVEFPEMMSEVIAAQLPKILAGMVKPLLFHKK
The settings on record: endometrial level; relative to progesterone.

For `CC#C[C@]1(O)CC[C@H]2[C@@H]3CCC4=CC(=O)CCC4=C3[C@@H](c3ccc(N(C)C)cc3)C[C@@]21C` [Mifepristone], the “ability to bind with the progesterone receptor, with respect to progesterone itself” value is recorded as 5 times higher.
